This assay deals with Androgen Receptor (AR) (Homo sapiens, UniProt P10275, T878A). Nature of the assay: LNCaP Androgen Receptor Down-regulation Cell Assay (immunofluorescence end point). In kind it is cell-based. Particulars: read-out: Androgen Receptor Down-regulation Assay (a) IC50/μM; LNCaP prostate carcinoma cells, compound incubation 20-22 hours, 50% reduction of the AR signal.

Amino acid sequences for entries named in this document (tags omitted).
UniProt P10275, whole entry T878A: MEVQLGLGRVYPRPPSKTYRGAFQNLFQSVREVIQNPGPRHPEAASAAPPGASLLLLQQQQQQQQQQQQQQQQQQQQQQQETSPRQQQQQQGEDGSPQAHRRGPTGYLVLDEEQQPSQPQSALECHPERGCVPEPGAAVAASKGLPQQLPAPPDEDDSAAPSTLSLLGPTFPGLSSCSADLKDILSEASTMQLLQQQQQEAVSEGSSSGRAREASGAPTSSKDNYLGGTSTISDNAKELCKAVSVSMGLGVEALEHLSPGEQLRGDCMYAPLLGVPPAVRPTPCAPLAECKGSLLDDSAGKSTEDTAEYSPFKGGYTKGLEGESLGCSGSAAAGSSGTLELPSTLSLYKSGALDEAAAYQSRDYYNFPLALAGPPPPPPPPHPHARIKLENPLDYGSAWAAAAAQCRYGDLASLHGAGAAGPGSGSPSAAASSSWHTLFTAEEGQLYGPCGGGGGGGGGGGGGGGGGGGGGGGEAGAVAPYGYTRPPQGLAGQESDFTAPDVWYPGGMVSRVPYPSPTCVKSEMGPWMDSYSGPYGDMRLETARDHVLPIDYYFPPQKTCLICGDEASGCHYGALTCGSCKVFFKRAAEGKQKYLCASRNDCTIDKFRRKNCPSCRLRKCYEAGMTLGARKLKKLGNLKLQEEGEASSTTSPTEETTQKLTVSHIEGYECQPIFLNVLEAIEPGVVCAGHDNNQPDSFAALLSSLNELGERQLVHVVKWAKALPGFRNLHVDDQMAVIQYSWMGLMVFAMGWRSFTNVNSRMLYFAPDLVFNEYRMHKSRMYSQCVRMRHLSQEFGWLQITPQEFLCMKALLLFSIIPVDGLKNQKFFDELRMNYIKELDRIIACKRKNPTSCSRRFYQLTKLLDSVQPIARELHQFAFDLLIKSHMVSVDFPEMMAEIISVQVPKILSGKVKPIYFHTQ

For `FC(F)(Cl)c1nnc2ccc(N3CC[C@H](c4ccccc4)C3)nn12`, the IC50 turned out to be 8.5 µM.
`Fc1cccc(CN2CCN(c3ccc4nnc(C(F)F)n4n3)CC2)c1`: the IC50 is 2.8 µM.
Take `N#Cc1ccc(CN[C@H]2[C@@H]3CN(c4ccc5nnc(C(F)(F)F)n5n4)C[C@@H]32)cc1` (relative stereo): the IC50 came out at 3.1 µM.
The result for `C[C@@H]1CN(c2ccc3nnc(C(F)(F)F)n3n2)[C@@H](C)CN1Cc1cc(F)cc(F)c1` reads 9.2 µM; that for `FC(F)(F)c1nnc2ccc(N3CCC(c4cccc(OCc5ccon5)c4)CC3)nn12`, 0.58 µM.
Consider `FC(F)(F)c1nnc2ccc(N3CCC(COc4ncc(Br)cn4)CC3)nn12`, for which the IC50 came to 2 µM.
As for `FC(F)(F)c1nnc2ccc(N3CCC(Oc4ccccn4)CC3)nn12`, the figure is 1.7 µM.
Take `C[C@@H]1CN(c2ccc3nnc(C(F)(F)F)n3n2)[C@@H](C)CN1Cc1ccc(F)cc1`: the IC50 was determined as 11 µM.
As to `COCC(=O)Nc1cccc(C2CCN(c3ccc4nnc(C(F)(F)F)n4n3)CC2)c1`, the IC50 amounted to 3.2 µM.
The result for `O=C(Nc1cccc(C2CCN(c3ccc4nnc(C(F)(F)F)n4n3)CC2)c1)C1CCOCC1` reads 0.94 µM; that for `CN(C)CCn1cc(C2CCN(c3ccc4nnc(C(F)(F)F)n4n3)CC2)c2ccccc21`, 1.8 µM.
The result for `OC1(c2ccccc2)CCN(c2ccc3nnc(C(F)(F)F)n3n2)CC1` reads 1.2 µM; that for `COCCn1cc(C2CCN(c3ccc4nnc(C(F)(F)F)n4n3)CC2)c2ccccc21`, 3.7 µM.
`COc1cc(OC)nc(C2CCN(c3ccc4nnc(C(F)(F)F)n4n3)CC2)n1`: the IC50 is 3.2 µM.
For the compound `FC(F)(Cl)c1nnc2ccc(N3CC[C@@H](c4ccccc4)C3)nn12`, the IC50 stood at 1.5 µM.
Regarding `Cn1nccc1COc1cccc(C2CCN(c3ccc4nnc(C(F)(F)F)n4n3)CC2)c1`, the IC50 amounted to 0.49 µM.
As to `FC(F)(Cl)c1nnc2ccc(N3CCN(Cc4ccccc4)CC3)nn12`, the IC50 was found to be 1.5 µM.
`CN1CCC(C(=O)Nc2cccc(C3CCN(c4ccc5nnc(C(F)(F)F)n5n4)CC3)c2)CC1`: the IC50 was found to be 1.1 µM.
Take `COc1ccncc1CN1CCN(c2ccc3nnc(C(F)(F)F)n3n2)CC1`: the IC50 amounted to 4 µM.

The values are drawn from US8003649B2 (AstraZeneca AB, priority 2007, dated 2011).
